Results as given in PubChem BioAssay AID2685 (National Center for Advancing Translational Sciences (NCATS), 2010).
Hit rate of the full screen: of about 320,000 compounds, about 2,100 (0.66%) were called active. The source calls these results inconclusive, neither active nor inactive. Calls come from the whole dose curve; as a rule, active = well fitted inhibition curve with a large enough effect in the signal ratio, with a control signal flat (not every such curve was filed as active); inconclusive = small, poorly fitted or top-dose-only effect, or effect the other way, or a change in a side signal; inactive = flat fitted curve, though single readings scatter; the % refers to the signal ratio.
Potency is the fitted concentration of half-maximal effect.

Assay: qHTS Assay for Lipid Storage Modulators in Drosophila S3 Cells
Conditions: BODIPY lipid droplet fluorescence, 18-24 h, cells fed with added oleic acid
For `CS(=O)(=O)c1cc([N+](=O)[O-])c2no[n+]([O-])c2c1`, the Potency was inconclusive: 18.4 µM. With `Cc1ccccc1C(=O)O/N=C(/C(N)=O)P(=O)(OC(C)C)OC(C)C` the Potency was inconclusive: 18.4 µM. With `Cc1cccc(OCC(=O)OC2CN3CCC2CC3)c1` (stereo not drawn) the Potency was inconclusive: 2.59 µM. In the case of `Cc1ccc(NCCc2c([N+](=O)[O-])cc([N+](=O)[O-])cc2[N+](=O)[O-])cc1`, the Potency is reported as inconclusive: 29.1 µM. For `CCC1=CC2Cc3nc4ccc(Cl)cc4c(N)c3C(C1)C2` (stereo not drawn), the Potency was inconclusive: 6.51 µM. In the case of `C=C(C=O)CC1CC(O)[C@]2(C)OC3CC4OC5C[C@]6(C)O[C@]7(C)CCC8OC9C[C@]%10(C)OC%11C(C)=CC(=O)OC%11CC%10OC9C[C@@H](C)C8OC7CC6O[C@]5(C)CC5OC5C4OC3CC2O1` (stereo partly drawn), the Potency is reported as inconclusive: 5.8 µM. For `CCC(C)N(CC(C)C)C(=S)SC(NC(C)=O)C(Cl)(Cl)Cl` (stereo not drawn), the Potency was inconclusive: 14.6 µM. With `O=C(OC1CN2CCC1CC2)c1cccc([N+](=O)[O-])c1` (stereo not drawn) the Potency was inconclusive: 0.164 µM. In the case of `CCOC(=O)c1ccc(NC(=O)C(C)(CCl)SC)cc1` (stereo not drawn), the Potency is reported as inconclusive: 0.326 µM. For `O=C(OC1CN2CCC1CC2)C12CC3CC(CC(C3)C1)C2` (stereo not drawn), the Potency was inconclusive: 0.58 µM. In the case of `O=[N+]([O-])c1cc([N+](=O)[O-])c(-c2ccn[nH]2)s1`, the Potency is reported as inconclusive: 29.1 µM. With `C=C(C=O)C[C@@H]1C[C@H](O)C2OC3C[C@]4(C)OC5/C=C\CC6OC7C(CC=CCC6OC5CCCC4OC3CC2O1)OC1CC2OC3CC(=O)OC3C[C@@H](C)C[C@@]2(C)OC1C[C@@H]7C` (stereo partly drawn) the Potency was inconclusive: 0.326 µM. In the case of `CCOP(=O)(Nc1ccccc1)OCC`, the Potency is reported as inconclusive: 6.51 µM. In the case of `CC(=O)Nc1ccc([As](=O)(O)O)cc1`, the Potency is reported as inconclusive: 29.1 µM. For `Cc1c2non([O-])c-2c(C)[n+](=O)[n+]1[O-]`, the Potency was inconclusive: 20.6 µM. In the case of `Nc1cc(N)c2nonc2c1[N+](=O)[O-]`, the Potency is reported as inconclusive: 0.184 µM. With `CCc1nc2c(n1)c1c(non1O)c1c2no[n+]1[O-]` the Potency was inconclusive: 29.1 µM. For `O=[N+]([O-])c1cccc2n[nH]nc12`, the Potency was inconclusive: 6.51 µM. For `Nc1ccc([As](=O)(O)c2ccc(N)cc2)cc1`, the Potency was inconclusive: 6.51 µM. For `O=[N+]([O-])c1ncn(CCn2ncnc2[N+](=O)[O-])n1`, the Potency was inconclusive: 14.6 µM. For `Cn1c(=O)[nH]c(=O)c2c1nc(Br)n2Cc1ccccc1`, the Potency was inconclusive: 20.6 µM. For `O=[N+]([O-])c1ccc(O)c(/C=N/Nc2ccc([N+](=O)[O-])cc2[N+](=O)[O-])c1`, the Potency was inconclusive: 13 µM. With `O=[N+]([O-])c1ncn(CCn2cnc([N+](=O)[O-])n2)n1` the Potency was inconclusive: 29.1 µM. In the case of `CC(=O)NC(SC(=S)N(C)C)C(Cl)(Cl)Cl` (stereo not drawn), the Potency is reported as inconclusive: 0.0065 µM. In the case of `c1nnnn1CCn1cnnn1`, the Potency is reported as inconclusive: 14.6 µM. For `CC(=O)Nc1ccc([As](=O)(O)O)c(O)c1`, the Potency was inconclusive: 0.146 µM. For `O=c1c2cc([N+](=O)[O-])ccc2[nH]c2c([N+](=O)[O-])cc([N+](=O)[O-])cc12`, the Potency was inconclusive: 1.84 µM. For `CC(=O)NC(SC(=S)N(CC(C)C)CC(C)C)C(Cl)(Cl)Cl` (stereo not drawn), the Potency was inconclusive: 13 µM.
